Experimental data published in US8742106B2 (Novartis AG, priority 2009, dated 2014).

Protein sequences, listed by entry. Tags and fused reporters are not part of them.
UniProt O43614, whole entry: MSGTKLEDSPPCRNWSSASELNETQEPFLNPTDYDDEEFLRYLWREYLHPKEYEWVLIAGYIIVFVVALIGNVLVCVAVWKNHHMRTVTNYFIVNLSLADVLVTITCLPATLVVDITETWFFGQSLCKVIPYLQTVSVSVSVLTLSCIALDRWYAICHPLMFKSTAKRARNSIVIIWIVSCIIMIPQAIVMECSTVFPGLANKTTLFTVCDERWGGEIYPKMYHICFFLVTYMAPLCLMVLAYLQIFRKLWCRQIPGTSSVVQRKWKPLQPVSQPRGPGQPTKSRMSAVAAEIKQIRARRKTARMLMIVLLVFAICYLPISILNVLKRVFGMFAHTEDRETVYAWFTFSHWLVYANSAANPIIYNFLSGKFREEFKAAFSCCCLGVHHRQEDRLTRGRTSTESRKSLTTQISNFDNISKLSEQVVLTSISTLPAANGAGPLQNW

Target: human orexin 2 receptors (Homo sapiens (Human), UniProt O43614)
Assay: Radioligand Binding Assay I ([125I]orexin A competition, cell membranes)
Settings: read-out: binding I hOx2R Kd
Protocol: Radioligand Binding Assay I
For crude cell membrane preparations, cells (CHO, Chinese hamster ovary or HEK, human embryonic kidney) expressing human orexin 1 or human orexin 2 receptors, were washed with HEPES (10 mM, pH 7.5), scraped off the culture plates with the same buffer, and centrifuged at 4° C. for 5 min at 2500×g. The cell pellet was either stored at −80° C. or used directly. Before the experiments, cell membranes were re-suspended in binding assay buffer (10 mM HEPES, 0.5% (w/v) bovine serum albumin, pH 7.5) by homogenisation with a Polytron homogeniser at 50 Hz for 20 s. Cell membranes were also used as made available by commercial providers.
In initial saturation experiments (to calculate Bmax), cell homogenates (150 μl) were incubated with 25-300 pM of the radioligand ([^125I]orexin A, 50 μl), 8 concentrations in triplicates in the presence or absence Orexin A (1 μM, 50 μl) to define non specific binding. Bound radioactivity was measured, and data were analysed with the program XLFIT or Graphpad Prism. Protein concentration was determined according to the Bradford/BioRad Protein Assay Kit. […]

## Cc1n[nH]c(C)c1[C@H](C)NC(=O)COc1cc(C(F)(F)F)c2c(-c3ccccc3)nn(C)c2n1 [Example 1.6, (S)—N-(1-(3,5-dimethyl-1H-pyrazol-4-yl)ethyl)-2-(1-methyl-3-phenyl-4-(trifluoromethyl)-1H-pyrazolo[3,4-b]pyridin-6-yloxy)acetamide]
  Kd: 8 nM
